Data: patent publication US20260132128A1, “COMPOUND FOR RECOVERING P53 MUTATION FUNCTION AND USE THEREOF” (SHENZHEN ZHONGGE BIOLOGICAL TECHNOLOGY CO., LTD., priority 2022, published 2026)

What was measured:
[1] = biological target: p53 Y220C (Homo sapiens, UniProt P04637, Y220C); assay: DNA binding test (HTRF): binding of P53Y220C protein to DNA; format: biochemical; conditions: multiple ratio of EC50 of the compound to the reference compound, DNA binding test
Description: In order to detect the ability of the aforementioned compounds to increase the binding of P53Y220C protein to DNA, the binding activity of p53 Y220C was measured by homogeneous time-resolved fluorescence (HTRF). Recombinant His-tagged p53 Y220C for HTRF measurement was expressed in bacteria E. coli. The recombinant protein was a truncated mutant containing only amino acids 94-312 of p53, and its sequence was […] […] VEGNLR VEYLDDRN TFRh[…] […]. The sense strand of the DNA double strand was 5′-[…]-3′, with a biotin tag at the 5′ end for activity assay, and the antisense strand was 5′-[…]-3′ 40 mL of assay buffer (20 mM Tris HCL, pH 7.5, 50 mM NaCl, 2 mM MgCl2, 0.02% Tween 20, 0.01% BSA, 1 mM DTT) was prepared. 10 mM compound was prepared and subjected to 3-fold dilution to obtain 10 dose gradient dilutions of the compound. 20 nL of the compound was added to a 384-well assay plate (PerkinElmer 6007299) using an Echo 655 Liquid Handler. P53Y220C protein was dissolved in assay buffer to reach a final concentration of 150 nM, and 5 μL thereof was added to each well, and incubated at room temperature for 5 min. DNA was dissolved in assay buffer to reach a final concentration of 150 nM, and 5 μL thereof was added to each well, and incubated at room temperature for 15 min. Anti 6HIS-XL665 (Cisbio 61HISXLB) was dissolved in assay buffer to reach a final concentration of 20 nM, and 5 μL thereof was added to each well. Streptavidin-Eu cryptate (Cisbio 610SAKLA) was dissolved in assay buffer to reach a final concentration of 0.625 nM, and 5 μL thereof was added to each well, and incubated at 27° C. for 1 hour. The plate was then read for signal values on an Envision (PerkinElmer 2105-0020) plate reader at 665 nm and 615 nm, respectively. GraphPad 9.0 was used to fit activation rate and compound concentration into a nonlinear regression curve (dose response-variable slope) to calculate EC50, and EC50 could be defined as the concentration required for the compound to achieve 50% effect. Activation rate={(A-C)/(C)}*100%, A=(signal value at 665 nm/signal value at 615 nm); C=average signal of negative control (wherein, negative control referred to 0.1% DMSO).

[2] = system: NUGC-3 cells; assay: NUGC-3 cell proliferation assay (CTG)
Description: In order to detect the inhibitory effect of the aforementioned compounds on the proliferation ability of NUGC-3 cells, 250 NUGC-3 cells (Nanjing Cobioer Biosciences Co., Ltd., CBP60492) were seeded into a 384-well plate (Corning 3765), 35 μL per well, and incubated overnight in a constant temperature incubator at 37° C. and 5% CO2. Then, 40 nL of the compound was added to the 384-well plate using an Echo 655 Liquid Handler, with a maximum final concentration of 10 μM, 1:3 serial dilutions, and a total of 10 doses. The culture was performed at 37° C. and 5% CO2 for 6 days. The plate was taken out from the incubator and equilibrated at room temperature for 10 minutes. 20 μL of CTG (Promage G7572) was added to each well of the plate according to the platemap. The plate was centrifuged at 1000 rpm for 1 min. The lysis of cells was induced by mixing on a shaker for 2 min. The plate was centrifuged at 1000 rpm for 1 min. Incubation was performed at room temperature for 10 min to stabilize luminescence signals. Luminescence values were recorded by Envision (PerkinElmer 2105-0020). GraphPad 9.0 was used to fit the inhibition rate and compound concentration into a nonlinear regression curve (dose response-variable slope) to calculate GI50, inhibition rate={1−(A−B)/(C−B)}*100%, A=signal value of compound; B=average signal of blank control; C=average signal of negative control (wherein negative control was 0.1% DMSO).

## CNC(=O)c1ccc(NCC#Cc2cc3c(NC4CC[C@@H](N5CC6(COC6)C5)C[C@@H]4F)cccn3c2CC(F)(F)F)c(OC)c1 (single isomer, unassigned)
[1]
  Compound EC50 (nM)/Reference compound EC50 (nM): A (A: EC50 of the compound≤EC50 of the reference compound)
[2]; 6 days, CTG
  GI50: < 1 µM
[2]; multiple ratio of GI50 of the compound to the reference compound
  Compound GI50 (nM)/Reference compound GI50 (nM): A (A: GI50 of the compound ≤ GI50 of the reference compound)
